The text below walks through data of patent US6673332 (University of California, dated 2004).

The target of test [1] is T1, APP-GFP fusion protein (C-terminal 42 amino acids of human APP fused to GFP, from a His-tagged pRSETb-EGFP … (human)).
T1 construct: Expressed in bacteria, purified on Ni-NTA-agarose; also called C-terminal tail of APP fused to GFP; APP C-terminus; not shown: His tag and leader of the pRSETb vector
Kind of test: GST pull-down on glutathione agarose beads, Western blot for GFP. The method, then: (§1) Briefly, purified GST, GST-KLC1 and GST-KLC2 bound to glutathione agarose beads were incubated with 10 μg of indicated purified fusion protein in 150 μl Buffer B (20 mM Tris-Cl, pH 7.5, 50 mM KCl, 100 mM NaCl, 2 mM CaCl_2, 2 mM MgCl_2, 5 mM DTT, 1% BSA, and protease inhibitors) for 1 hr at 4° C. For the antibody inhibition experiments, the antibody was pre-bound to the beads for 1 hr at 4° C. and then incubated for 1 hr with the indicated protein. The unbound protein (in 150 μl total volume) was saved, and the beads were washed three times with Buffer B. Bound proteins were eluted with 50 μl of elution buffer (50 mM glutathione, 50 mM Tris-Cl, pH 8.0). The bound (50 μl) and unbound (50 μl, i.e., one-third of total volume) proteins were then analyzed by SDS-PAGE followed by Western blotting.
To test for direct interactions between the cytoplasmic C-terminal domain of APP and KLC, in vitro binding assays using GST fusion proteins were conducted. The results are shown in FIG. 5, Panel A. GST fused to full-length KLC1 (GST-KLC1) or full-length KLC2 (GST-KLC2) was incubated with a protein consisting of the C-terminal tail of APP fused to GFP (APP-GFP). APP-GFP bound to both GST-KLC1 and GST-KLC2 but not to GST alone. […]
For orientation: A western blot detects proteins with antibodies after separation by electrophoresis.

Another test deals with T2, GFP alone (UniProt P42212 = GFP).
T2 construct: Control
Kind of test: GST pull-down in five buffer conditions (GST-KLC1 or GST on beads), Western blot for GFP. The method, then: as §1
In addition, the binding of APP-GFP or GFP alone to either GST-KLC1 or GST using four other buffers than Buffer B, namely (1) Buffer B without Ca^2+, (2) Buffer B+500 mM NaCl+1% NP-40, (3) Buffer A from sucrose gradients (10 mM HEPES, pH 7.3, 0.5 mM EGTA, 0.5 mM EGTA, 0.5 mM MgCl_2, and (4) PBS (137 mM NaCl, 2.7 mM KCl, 4.3 mM Na_2HPO_4 7 H_2O, 1.4 mM KH_2PO_4) were tested.
To test for direct interactions between the cytoplasmic C-terminal domain of APP and KLC, in vitro binding assays using GST fusion proteins were conducted. […]

B1: GST alone (glutathione S-transferase) (other, UniProt P08515 1-218, looked up)
chain: MSPILGYWKIKGLVQPTRLLLEYLEEKYEEHLYERDEGDKWRNKKFELGLEFPNLPYYIDGDVKLTQSMAIIRYIADKHNMLGGCPKERAEISMLEGAVLDIRYGVSRIAYSKDFETLKVDFLSKLPEMLKMFEDRLCHKTYLNGDHVTHPDFMLYDALDVVLYMDPMCLDAFPKLVCFKKRIEAIPQIDKYLKSSKYIAWPLQGWQATFGGGDHPPK
notes: Control
In the case of B1, the binding result (in test [1]; with GFP alone) was “no binding” each time.
